Reference: patent publication US6329000A, “Extract of pine needle and the use thereof” (priority 1999, dated 2001)

Test system: coronary heart disease
Test: Clinical test in coronary heart disease: ECG, angina pectoris, arrhythmia
Type: in vivo, human

`O=[N+]([O-])O[C@H]1CO[C@H]2[C@@H]1OC[C@H]2O[N+](=O)[O-]` was tested, and the “ECG remarkable effectiveness case number” value (abnormal ECG 38 (extract) / 21 (control)) was 2 case number, the “ECG improvement case %” value (abnormal ECG 38 / 21) was 14.3% and the “ECG improvement case number” value (abnormal ECG 38 / 21) was 3 case number. The “ECG remarkable effectiveness case %” value (abnormal ECG 38 / 21) was 9.5%, the “ECG total effective case number” value (abnormal ECG 38 / 21) was 5 case number and the “ECG total effective rate %” value (abnormal ECG 38 / 21) was 23.8%. For the same compound, the “total incidences of angina pectoris after treatment” value (before: 395 (extract), 215 (control) times a week) was 108 times a week and the “total effective rate on angina pectoris” value (extract 15 ml (1.6 g) t.i.d. / control isosorbide dinitrate t.i.d.) was 86.6%.
